The values below come from US8071548B2, “Method of reducing injury to mammalian cells” (Nono, Inc., priority 2002, dated 2011).

The data set concerns cultured cortical neurons. Briefly: NO donor toxicity in cortical cultures.

Only a part of the results on these compounds is given; other tests are left out.

In the case of sodium nitroprusside, the “vulnerability of stretched versus unstretched cultures to NO donor” value (300 μM) is “increased vulnerability to SNP”. Besides, the NO donor toxicity result (irrespective of PSD-95 deficiency) was “highly toxic”. Further, where the note is “read-out: NO donor toxicity EC50, irrespective of PSD-95 deficiency”, the concentration giving a half-maximal response (EC50) was found to be 300 µM.

One may read the EC50 as the concentration giving half of the maximal effect.
